# Ab-91 heavy chain CDR variants: yeast mating affinities

Antigen: PDVDLGDISGINAS, a 14-residue peptide of the SARS-CoV-2 spike HR2 region.

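The parent was found by panning a naive human phage display library on the peptide. In library AAYL51, one, two or three CDR residues were substituted; doubles and triples were drawn at random. AlphaSeq pools MATa yeast showing the antibodies with MATalpha yeast showing the peptide. After mating in shaken culture at 30 °C for 16 h, diploids were selected and their barcode pairs sequenced. A regression on co-assayed BCL2-family reference pairs converts the normalised counts of each replicate to an apparent Kd. Each pool was mated in three replicate cultures.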

Parent: Ab-91, a human scFv built as VL, the linker GGGGSGGGGSGGGGS, VH. Only the CDRs of the heavy chain vary.
VL: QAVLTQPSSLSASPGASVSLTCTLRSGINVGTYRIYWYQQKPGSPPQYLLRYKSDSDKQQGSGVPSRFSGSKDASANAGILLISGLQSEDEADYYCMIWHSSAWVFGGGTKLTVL
VH: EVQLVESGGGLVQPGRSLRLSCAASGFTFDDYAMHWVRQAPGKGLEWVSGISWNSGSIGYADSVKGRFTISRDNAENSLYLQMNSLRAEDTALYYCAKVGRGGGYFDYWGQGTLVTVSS

Changes read parent residue, position, new residue, counted from the first residue of the VH shown.
Affinities are written as log10 Kd with Kd in nM; a lower number is a better binder.
The mean shown is taken over the replicates in which the pair was detected.
"not detected" marks a missing value. The strain was present, yet no cells mated with the target were sequenced in any replicate, which points to weak or no binding.

{"changes": "N54L+G103V", "mean log10 Kd (nM)": "not detected", "replicates with signal": "0/3"}
{"changes": "D30T+M34Q+K65L", "mean log10 Kd (nM)": "4.47", "replicates with signal": "3/3"}
{"changes": "A33Q+G104F+Y105P", "mean log10 Kd (nM)": "3.17", "replicates with signal": "1/3"}
{"changes": "M34L+G59I+D62H", "mean log10 Kd (nM)": "4.83", "replicates with signal": "1/3"}
{"changes": "T28R+G102L+F106S", "mean log10 Kd (nM)": "not detected", "replicates with signal": "0/3"}
{"changes": "G26R+F27A", "mean log10 Kd (nM)": "3.51", "replicates with signal": "1/3"}
{"changes": "D30C+G50L+Y108D", "mean log10 Kd (nM)": "not detected", "replicates with signal": "0/3"}
{"changes": "T28R+S52N+V64L", "mean log10 Kd (nM)": "1.97", "replicates with signal": "3/3"}
{"changes": "S52E+S63M+K65M", "mean log10 Kd (nM)": "not detected", "replicates with signal": "0/3"}
{"changes": "G26Y+T28F+Y60K", "mean log10 Kd (nM)": "5.36", "replicates with signal": "2/3"}
{"changes": "F27R+I51H", "mean log10 Kd (nM)": "5.33", "replicates with signal": "1/3"}
{"changes": "F29G+D31S+G56T", "mean log10 Kd (nM)": "5.63", "replicates with signal": "2/3"}
{"changes": "G26A+G103Q+D107Q", "mean log10 Kd (nM)": "not detected", "replicates with signal": "0/3"}
{"changes": "H35C+G103V+Y105F", "mean log10 Kd (nM)": "5.22", "replicates with signal": "3/3"}
{"changes": "M34P+G103N+Y108V", "mean log10 Kd (nM)": "not detected", "replicates with signal": "0/3"}
{"changes": "G102Q+D107S", "mean log10 Kd (nM)": "not detected", "replicates with signal": "0/3"}
{"changes": "D30H+F106A", "mean log10 Kd (nM)": "not detected", "replicates with signal": "0/3"}
{"changes": "S63V+V64L+V99D", "mean log10 Kd (nM)": "not detected", "replicates with signal": "0/3"}
{"changes": "I51A+D107G", "mean log10 Kd (nM)": "2.97", "replicates with signal": "2/3"}
{"changes": "F27I+S55C+A61G", "mean log10 Kd (nM)": "not detected", "replicates with signal": "0/3"}
{"changes": "I51N+S52M+A61T", "mean log10 Kd (nM)": "5.08", "replicates with signal": "3/3"}
{"changes": "A61S+V64R+D107M", "mean log10 Kd (nM)": "5.01", "replicates with signal": "2/3"}
{"changes": "T28G+V64L+Y108A", "mean log10 Kd (nM)": "4.72", "replicates with signal": "1/3"}
{"changes": "M34V+G50K+I51K", "mean log10 Kd (nM)": "not detected", "replicates with signal": "0/3"}
{"changes": "S55F+S57E+G103A", "mean log10 Kd (nM)": "not detected", "replicates with signal": "0/3"}

For reference, 2 entries of the list once more:

{"changes": "D30H+F106A", "mean log10 Kd (nM)": "not detected", "replicates with signal": "0/3"}
{"changes": "M34V+G50K+I51K", "mean log10 Kd (nM)": "not detected", "replicates with signal": "0/3"}

Parent in this assay: reference entry 1.86, copy in this library 0.88.
As a blank, each scFv also met three strains without target: over library AAYL51, 21% of these pairings were detected, typically at 4.54 and seldom below 3.26.

Values reported by Engelhart et al. 2022, doi:10.1038/s41597-022-01779-4 (FLAb copy).